# Columns and labels:
# Sequences of proteins named here, by UniProt entry; tags and fusion partners are left off. A change or cut given only in a name is not applied to a line headed by its entry. Residues count along the entry.
# UniProt O75116: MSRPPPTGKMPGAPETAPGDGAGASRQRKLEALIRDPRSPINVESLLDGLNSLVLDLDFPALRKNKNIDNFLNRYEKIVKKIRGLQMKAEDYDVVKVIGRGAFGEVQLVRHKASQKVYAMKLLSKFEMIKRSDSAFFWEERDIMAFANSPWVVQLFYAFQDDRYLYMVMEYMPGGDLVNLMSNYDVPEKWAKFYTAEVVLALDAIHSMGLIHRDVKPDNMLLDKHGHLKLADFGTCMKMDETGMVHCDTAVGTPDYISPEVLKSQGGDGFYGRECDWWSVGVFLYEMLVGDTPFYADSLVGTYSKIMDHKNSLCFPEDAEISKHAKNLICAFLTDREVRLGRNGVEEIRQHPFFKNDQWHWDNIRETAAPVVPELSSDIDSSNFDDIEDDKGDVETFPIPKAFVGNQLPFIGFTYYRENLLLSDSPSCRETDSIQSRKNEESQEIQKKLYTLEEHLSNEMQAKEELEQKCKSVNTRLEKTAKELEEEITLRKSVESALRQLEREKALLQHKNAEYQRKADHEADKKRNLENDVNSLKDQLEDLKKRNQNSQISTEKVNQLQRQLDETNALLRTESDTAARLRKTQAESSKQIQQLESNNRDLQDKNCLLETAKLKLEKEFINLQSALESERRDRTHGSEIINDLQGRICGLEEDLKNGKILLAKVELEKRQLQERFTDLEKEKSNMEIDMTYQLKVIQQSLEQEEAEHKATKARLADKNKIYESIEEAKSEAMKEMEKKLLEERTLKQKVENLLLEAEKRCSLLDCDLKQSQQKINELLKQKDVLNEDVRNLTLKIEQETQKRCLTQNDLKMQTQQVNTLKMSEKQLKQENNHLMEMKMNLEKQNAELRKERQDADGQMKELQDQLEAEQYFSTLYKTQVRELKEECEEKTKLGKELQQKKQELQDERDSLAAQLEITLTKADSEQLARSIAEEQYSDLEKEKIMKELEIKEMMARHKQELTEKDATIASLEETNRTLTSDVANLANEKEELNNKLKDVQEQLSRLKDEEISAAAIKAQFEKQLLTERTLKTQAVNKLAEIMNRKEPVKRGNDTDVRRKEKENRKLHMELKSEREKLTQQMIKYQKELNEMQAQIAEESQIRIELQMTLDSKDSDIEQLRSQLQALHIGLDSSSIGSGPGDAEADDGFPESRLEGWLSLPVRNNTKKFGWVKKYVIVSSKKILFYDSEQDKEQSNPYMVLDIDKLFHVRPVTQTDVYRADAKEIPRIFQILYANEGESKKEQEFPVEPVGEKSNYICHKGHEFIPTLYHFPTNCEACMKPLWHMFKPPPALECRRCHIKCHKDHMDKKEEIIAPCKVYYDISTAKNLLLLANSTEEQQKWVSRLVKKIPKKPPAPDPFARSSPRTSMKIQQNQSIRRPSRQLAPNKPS
# UniProt P37173, 23-567: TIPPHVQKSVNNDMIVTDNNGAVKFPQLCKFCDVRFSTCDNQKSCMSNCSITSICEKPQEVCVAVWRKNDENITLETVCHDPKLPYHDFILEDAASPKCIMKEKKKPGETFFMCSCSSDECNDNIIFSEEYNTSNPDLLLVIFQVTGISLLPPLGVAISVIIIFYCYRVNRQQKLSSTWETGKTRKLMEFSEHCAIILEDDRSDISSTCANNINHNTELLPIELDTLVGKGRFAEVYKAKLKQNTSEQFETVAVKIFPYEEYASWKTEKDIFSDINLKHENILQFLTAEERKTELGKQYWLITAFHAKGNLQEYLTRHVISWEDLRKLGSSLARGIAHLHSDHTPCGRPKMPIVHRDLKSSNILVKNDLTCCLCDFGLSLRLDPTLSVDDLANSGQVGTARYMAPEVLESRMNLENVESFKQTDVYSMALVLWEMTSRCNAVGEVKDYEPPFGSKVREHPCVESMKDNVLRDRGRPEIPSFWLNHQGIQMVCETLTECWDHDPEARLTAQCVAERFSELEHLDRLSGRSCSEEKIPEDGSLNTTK
# UniProt P09619, 33-1106: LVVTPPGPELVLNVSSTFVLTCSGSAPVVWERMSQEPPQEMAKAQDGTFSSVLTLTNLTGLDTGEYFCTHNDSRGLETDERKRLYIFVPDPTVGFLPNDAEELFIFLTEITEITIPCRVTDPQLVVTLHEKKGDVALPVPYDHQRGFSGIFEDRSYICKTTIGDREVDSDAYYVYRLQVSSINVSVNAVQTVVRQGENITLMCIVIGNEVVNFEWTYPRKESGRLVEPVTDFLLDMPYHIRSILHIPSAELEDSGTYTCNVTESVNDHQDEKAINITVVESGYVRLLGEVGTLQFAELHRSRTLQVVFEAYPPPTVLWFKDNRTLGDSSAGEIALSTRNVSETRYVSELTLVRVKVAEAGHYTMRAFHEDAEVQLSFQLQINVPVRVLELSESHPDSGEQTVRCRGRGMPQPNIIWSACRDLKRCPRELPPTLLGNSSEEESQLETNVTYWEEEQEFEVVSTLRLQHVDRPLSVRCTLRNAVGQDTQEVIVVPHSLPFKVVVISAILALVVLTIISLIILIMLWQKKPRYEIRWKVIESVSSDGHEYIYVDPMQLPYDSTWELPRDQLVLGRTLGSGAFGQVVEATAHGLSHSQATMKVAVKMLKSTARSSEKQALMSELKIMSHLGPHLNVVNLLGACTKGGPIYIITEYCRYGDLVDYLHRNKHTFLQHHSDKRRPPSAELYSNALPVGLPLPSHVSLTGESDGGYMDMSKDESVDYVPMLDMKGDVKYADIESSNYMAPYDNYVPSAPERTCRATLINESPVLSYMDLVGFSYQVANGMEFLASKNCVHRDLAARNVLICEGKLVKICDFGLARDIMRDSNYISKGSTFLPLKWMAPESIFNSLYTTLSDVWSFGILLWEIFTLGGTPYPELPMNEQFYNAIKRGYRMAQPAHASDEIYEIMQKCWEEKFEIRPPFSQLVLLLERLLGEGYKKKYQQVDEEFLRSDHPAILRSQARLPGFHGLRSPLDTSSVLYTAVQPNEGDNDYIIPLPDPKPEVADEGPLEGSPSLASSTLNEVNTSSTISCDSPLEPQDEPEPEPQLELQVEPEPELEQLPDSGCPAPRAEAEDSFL
# UniProt P16234, 24-1089: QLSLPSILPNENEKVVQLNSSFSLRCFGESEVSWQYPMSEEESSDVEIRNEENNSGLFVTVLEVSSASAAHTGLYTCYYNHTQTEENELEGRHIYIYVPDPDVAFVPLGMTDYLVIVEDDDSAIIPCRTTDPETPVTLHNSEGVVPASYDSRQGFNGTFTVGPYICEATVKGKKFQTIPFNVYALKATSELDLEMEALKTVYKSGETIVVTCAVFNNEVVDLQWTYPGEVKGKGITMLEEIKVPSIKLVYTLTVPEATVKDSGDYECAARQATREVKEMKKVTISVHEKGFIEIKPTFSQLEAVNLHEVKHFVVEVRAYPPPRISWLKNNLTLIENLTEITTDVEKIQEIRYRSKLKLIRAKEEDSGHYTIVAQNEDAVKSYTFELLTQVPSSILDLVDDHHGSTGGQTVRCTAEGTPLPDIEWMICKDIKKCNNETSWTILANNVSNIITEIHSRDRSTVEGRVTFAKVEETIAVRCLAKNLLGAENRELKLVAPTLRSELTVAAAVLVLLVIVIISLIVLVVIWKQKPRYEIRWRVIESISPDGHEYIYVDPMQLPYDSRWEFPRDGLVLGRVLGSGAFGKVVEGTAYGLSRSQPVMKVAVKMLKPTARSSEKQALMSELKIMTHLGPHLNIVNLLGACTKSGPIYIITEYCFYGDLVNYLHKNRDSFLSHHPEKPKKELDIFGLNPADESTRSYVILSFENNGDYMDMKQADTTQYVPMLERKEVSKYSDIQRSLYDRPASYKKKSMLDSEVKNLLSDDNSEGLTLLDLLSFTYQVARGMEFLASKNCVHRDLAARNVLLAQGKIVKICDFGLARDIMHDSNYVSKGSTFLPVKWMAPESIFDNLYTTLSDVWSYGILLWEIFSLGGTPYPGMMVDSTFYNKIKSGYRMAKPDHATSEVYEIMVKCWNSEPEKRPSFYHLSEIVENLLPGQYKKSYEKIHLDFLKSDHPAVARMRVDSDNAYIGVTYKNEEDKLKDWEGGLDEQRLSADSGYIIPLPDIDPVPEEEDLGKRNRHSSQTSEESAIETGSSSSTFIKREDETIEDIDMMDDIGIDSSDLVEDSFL
# Experiment in all cases: Biochemical kinase profiling (33PanQinase radiometric assay)
# ROCK2 = ROCK2 (Homo sapiens, UniProt O75116); conditions: read-out: ROCK2 IC50; ATP at apparent Km
# TGFBR1 = target: T1, TGFBR1 (Homo sapiens, UniProt P36897); conditions: read-out: TGFBR1 IC50; ATP at apparent Km
# T1 sequence (P36897 34-503): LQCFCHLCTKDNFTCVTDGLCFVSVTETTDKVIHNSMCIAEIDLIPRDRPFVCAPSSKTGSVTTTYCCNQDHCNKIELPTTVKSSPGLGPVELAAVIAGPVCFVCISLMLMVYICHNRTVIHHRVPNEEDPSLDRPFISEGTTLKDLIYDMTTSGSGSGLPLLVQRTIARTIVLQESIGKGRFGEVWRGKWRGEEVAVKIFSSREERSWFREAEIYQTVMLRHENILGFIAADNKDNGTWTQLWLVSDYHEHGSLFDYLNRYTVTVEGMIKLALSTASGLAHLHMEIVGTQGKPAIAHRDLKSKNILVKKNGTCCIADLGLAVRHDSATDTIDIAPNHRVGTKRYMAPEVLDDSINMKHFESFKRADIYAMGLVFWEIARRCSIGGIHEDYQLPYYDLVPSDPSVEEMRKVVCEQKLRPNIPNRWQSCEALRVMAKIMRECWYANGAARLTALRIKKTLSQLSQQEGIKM
# TGFBR2 = TGFBR2 (Homo sapiens, UniProt P37173); conditions: read-out: TGFBR2 IC50; ATP at apparent Km
# PDGFRB = PDGFRB (Homo sapiens, UniProt P09619); conditions: read-out: PDGFRB IC50; ATP at apparent Km
# PDGFRA = PDGFRA (Homo sapiens, UniProt P16234); conditions: read-out: PDGFRA IC50; ATP at apparent Km
# EGFR = EGFR (Homo sapiens, UniProt P00533); conditions: read-out: EGFR IC50; ATP at apparent Km
# SRC = SRC (Homo sapiens, UniProt P12931); conditions: read-out: SRC IC50; ATP at apparent Km
substance,measurement,setting,value
AZD4547,IC50,ROCK2,> 10 µM
same,IC50,TGFBR1,> 10 µM
same,IC50,TGFBR2,8.77 µM
same,IC50,PDGFRB,1.01 µM
same,IC50,PDGFRA,> 10 µM
same,IC50,EGFR,> 10 µM
same,IC50,SRC,0.76 µM

# Reference: publication PMC5041959, “A high-content EMT screen identifies multiple receptor tyrosine kinase inhibitors with activity on TGFβ receptor” (Oncotarget, 2016)
